# Yeast mating assay B: variants of the scFv Ab-14

Target: peptide PDVDLGDISGINAS, taken from heptad repeat 2 (HR2) of SARS-CoV-2 spike.

Ab-14 is the parent antibody, in scFv form: VH, then three GGGGS repeats, then VL. The heavy chain is unchanged in all variants.
VH: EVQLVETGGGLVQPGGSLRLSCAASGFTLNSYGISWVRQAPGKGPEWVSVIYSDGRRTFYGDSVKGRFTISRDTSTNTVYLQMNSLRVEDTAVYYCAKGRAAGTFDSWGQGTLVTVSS
VL: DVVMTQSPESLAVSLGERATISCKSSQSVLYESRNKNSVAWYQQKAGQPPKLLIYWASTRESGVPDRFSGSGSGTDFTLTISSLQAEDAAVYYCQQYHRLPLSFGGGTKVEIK

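The parent was found by panning a naive human phage display library on the peptide. This is the validation round: designs drawn from the data on random variants, tested in the same kind of assay. Several design methods are mixed in this list. In AlphaSeq, yeast of one mating type display the scFv and yeast of the other type display the target. Pairs that bind mate more often; barcode pairs of the diploids are counted by sequencing. Each replicate has its own calibration line, from reference interactions of the BCL2 family. There are six technical replicates.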

The parent's light chain CDRs are KSSQSVLYESRNKNSVA, WASTRES, QQYHRLPLS; each variant's own CDRs replace them letter for letter. The read-out is the apparent dissociation constant on a log10 scale (nM): the lower, the stronger. A mean of the replicates is given; it leaves out those without a signal. "ND" means that the variant was in the library but no mating with the target was seen in that replicate; the authors take this as a sign of poor binding, and no number exists. Order: sorted from the lowest average up, undetected variants last.

| CDR-L1 | CDR-L2 | CDR-L3 | log10 Kd (nM) by replicate | log10 Kd (nM), mean |
|---|---|---|---|---|
| KLSQSVLMESRNKNSVA | NASTRLS | QQYHRLPLS | -0.41 / -0.60 / -0.47 / -1.09 / -0.47 / -0.16 | -0.53 |
| KVSQSAPYEDRNLNNVA | HASTRES | QQYHRLPLM | -0.31 / -0.45 / -0.33 / -0.52 / -0.34 / -0.29 | -0.38 |
| KLSQSVLYESRNKNSVA | AASTRVS | QQYHRLPLS | -0.11 / -0.20 / -0.30 / -0.44 / -0.01 / -0.17 | -0.20 |
| KLSQSVLYESRNKNSVA | NASTRLD | QQYHRLPLS | 0.04 / -0.04 / -0.29 / -0.24 / -0.31 / -0.05 | -0.15 |
| KLQWYNTEASYSARNIA | DGAQRLN | QQYMRLPLM | -0.04 / -0.09 / -0.21 / -0.16 / -0.50 / 0.19 | -0.13 |
| WLNMEEQGSDRGKSSVA | DSDARMA | QQYQRLPLS | -0.03 / -0.08 / -0.29 / -0.03 / -0.18 / -0.06 | -0.11 |
| KLSQSDLYESRNKNSVA | NASTREH | QQYHRLPLS | 0.00 / -0.16 / -0.01 / -0.09 / -0.05 / 0.05 | -0.04 |
| KMSQSVLMGGRNDNSVA | EASTRED | QQYHRLPLS | 0.15 / -0.13 / -0.04 / -0.12 / -0.08 / 0.13 | -0.01 |
| KLSQSWLYESRNKNSVA | NASTRMS | QQYHRLPLS | 0.21 / -0.02 / -0.02 / 0.03 / -0.08 / -0.02 | 0.02 |
| KLSQSVEYESRNKNSVA | NASTRES | QQYHRLPLM | 0.35 / 0.20 / -0.07 / -0.06 / -0.05 / 0.21 | 0.09 |
| KQSQQDDYQSRNKNQVA | DASTRYS | QQYHRLPLS | 0.05 / 0.31 / -0.18 / -0.24 / 0.40 / 0.24 | 0.10 |
| KIGMTLNTVLHQKNNVA | DLVEREN | QQYFRLPLS | 0.53 / 0.16 / 0.27 / 0.01 / 0.12 / 0.31 | 0.23 |
| KIAMSMNMTSHHINSVA | QSTTREE | QQYNHLPLS | 0.04 / 0.16 / 0.46 / 0.14 / -0.07 / 0.73 | 0.24 |
| KLYQNVGTMSHNKQSIA | DMERREQ | QQYHRLPLS | 0.37 / 0.33 / 0.34 / 0.02 / 0.34 / 0.67 | 0.34 |
| IITQSVMSESKNKRNVA | NTSERMD | QQYDRLPLI | 0.36 / 0.54 / 0.29 / 0.32 / 0.25 / 0.43 | 0.36 |
| KCLQSVLYESRNKNSVA | HASTRED | QQYGRLPLS | 0.32 / 0.65 / 0.17 / 0.29 / 0.36 / 0.51 | 0.38 |
| KLSQSVLYEMRVKNSVA | QAVTRMS | QQYHRLPLS | 0.72 / 0.55 / 0.14 / 0.35 / 0.34 / 0.41 | 0.42 |
| KISMTSDMELKNRNSVA | ELVTRMN | QQYNRLPLS | 0.21 / 0.55 / 0.63 / 0.37 / 0.21 / 0.64 | 0.43 |
| KSSQSILYESRFKNSVA | GASTRES | QQYVRLPLS | 0.71 / 0.39 / 0.53 / 0.25 / 0.53 / 0.39 | 0.46 |
| NSSGPMMFESRNRNSVA | HASTREE | QQYERLPLS | 0.01 / 0.66 / 0.43 / 0.07 / 1.22 / 0.45 | 0.47 |
| KLSSSHLYGDRMKNSVA | QASQREM | QQYHRLPLS | 0.65 / 0.73 / 0.27 / 0.63 / 0.17 / 0.60 | 0.51 |
| KSSWSWLYESNNKNSVA | HASTRED | QQYHRLPLS | 0.72 / 0.40 / -0.35 / 0.00 / 1.14 / 1.25 | 0.53 |
| KSSQSVLYESDNKNSVA | QASTRES | QQYHRLPLS | 0.68 / 0.55 / 0.44 / 0.54 / 0.65 / 0.72 | 0.60 |
| KMLQSWLYESRNKNSVA | HASTREQ | QQYHRLPLS | 0.65 / 0.67 / 0.77 / 0.37 / 0.62 / 0.70 | 0.63 |
| KCSQSVLFEPRNKNSVA | DASTRES | QQYHRLPLS | 1.16 / 0.57 / 0.33 / 0.70 / 0.73 / 0.33 | 0.64 |
| MISNEQDYGYSATNSVA | DVTEKCN | QQYKRLPLT | 0.59 / 1.30 / ND / -0.35 / 0.44 / 1.40 | 0.68 |
| MVTQMAMSGMTNKRSVA | NAETREH | QQYHHLPLI | 0.81 / 0.78 / 0.46 / 0.38 / 1.00 / 0.80 | 0.70 |
| KLYYNEGTEMFRKDNIA | DNDLRER | QQYDRLPLS | 0.93 / 0.80 / 0.68 / 0.54 / 0.46 / 0.84 | 0.71 |
| HISMLTLQGMRQRNSVA | QMTTREN | QQYDRLPLA | 0.81 / 0.40 / 0.81 / 0.84 / 0.80 / 0.78 | 0.74 |
| KLSWGVLYESRNKNSVA | GASTRES | QQYHRLPLS | 0.69 / 0.71 / 0.79 / 0.66 / 0.90 / 0.81 | 0.76 |
| KSMQSVLGESRNCNSVA | SASTREL | QQYHRLPLS | 1.27 / 0.84 / 0.99 / 0.43 / 0.41 / 0.88 | 0.80 |
| MFSQLTYMGSRARNAVA | QAETRLN | QQYHHLPLF | 1.32 / 0.81 / 0.20 / 0.45 / 1.03 / 1.18 | 0.83 |
| TMNVELIYGVPEMNNVA | AGSQKLA | QQYYRLPLS | 1.05 / 0.75 / 0.81 / 0.91 / 1.04 / 0.55 | 0.85 |
| KSSISYLYESENKESVA | EASQRES | QQYHRLPLS | 0.77 / 1.01 / 0.29 / 1.00 / 0.89 / 1.51 | 0.91 |
| KLGSMVLLEHGNHNSIA | QQSTREE | QQYDRLPLS | 0.78 / 1.03 / 1.41 / 0.82 / 1.09 / 0.65 | 0.96 |
| KSSQSVLYESRNKNNVA | AAQTRES | QQYHRLPLS | 0.98 / 1.19 / 0.98 / 1.39 / 1.18 / 1.14 | 1.14 |
| KSSDSPLYESRNKNSVA | WASTRES | QQYMRLPLS | 1.46 / 1.15 / 0.95 / 1.39 / 1.13 / 1.66 | 1.29 |
| ALNQKGFQLHGDRQSIA | HSDTRLA | QQYYRLPLA | 0.47 / 2.05 / 2.01 / 0.90 / 1.57 / ND | 1.40 |
| KLSQFYRMESRDKNSVA | DNSTRES | QDYDRLPLS | 1.65 / 1.20 / 1.13 / 1.26 / 1.92 / 1.77 | 1.49 |
| MISMNIYGVYRNRDNVA | HASMREN | QCYDRLPLS | 1.56 / 1.62 / 2.16 / 1.16 / 1.94 / 2.39 | 1.80 |
| KLSQVTNSEHKVKNSIA | EMVTREK | QQYDRLPLS | ND / 2.65 / ND / ND / ND / ND | 2.65 |
| TISNMFMMENQFKNSVA | QASTRLN | QCYDRLPLS | 2.94 / ND / ND / ND / ND / ND | 2.94 |
| IVSQLMLWGYHHKNSIA | EAQTRLN | QQYERLPLF | ND / 3.94 / ND / ND / ND / ND | 3.94 |
| TISQMWHLESKNKNNVA | EESTRED | QSYFRLPLS | ND / ND / ND / ND / ND / ND | ND |
| KSSQSVLYESNNKNSVA | NASTRES | QQCHRWPLS | ND / ND / ND / ND / ND / ND | ND |
| KSSQEVLWESRNKNIVA | WASTRES | QQYHRLPLS | ND / ND / ND / ND / ND / ND | ND |

Nonspecific signal, from three strains lacking the peptide, appeared in 4% of pairings of all light chain designs, centred on 2.64 (5% of these signals below 1.59); values are not corrected for it. Of ten entries with the parent sequence, four were seen in most replicates (averages 0.34 to 2.37), three in one and three in none, so single entries are noisy. The range of this assay differs from that of the first round, and the authors advise against merging the two. The authors averaged sequences with at least three values out of six and counted those with two or fewer as poor binders.

The measurements come from Li et al. 2023 (doi:10.1038/s41467-023-39022-2) through the FLAb antibody collection.